Data taken from patent US20250099548A1 (GI INNOVATION, published 2025).

Biological target: T1, IL-1Rα (interleukin-1 receptor alpha), R&D systems (UniProt P14778 18-332, limits assumed)
T1 construct: also called IL-1Ra (interleukin-1 receptor alpha)
T1 sequence (looked up): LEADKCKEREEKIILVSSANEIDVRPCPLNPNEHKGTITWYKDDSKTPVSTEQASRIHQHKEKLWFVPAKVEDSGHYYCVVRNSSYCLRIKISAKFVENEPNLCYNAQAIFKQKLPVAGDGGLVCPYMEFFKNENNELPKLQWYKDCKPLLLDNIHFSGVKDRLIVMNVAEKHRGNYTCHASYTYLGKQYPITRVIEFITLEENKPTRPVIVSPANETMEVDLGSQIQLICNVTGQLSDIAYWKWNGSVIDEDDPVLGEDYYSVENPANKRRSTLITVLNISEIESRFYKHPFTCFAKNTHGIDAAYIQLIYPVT
Test: BLI (Octet RED 384), receptor coated on AR2G biosensor at 1 µg/ml, GI210B1 15.6-1,000 nM
Procedure: The binding ability of GI210B1, which was obtained through the method of Preparation Example 1 above, to IL-1Ra ([…]) was measured. At that time, the binding ability to IL-1Ra was confirmed using Octet RED 384 (ForteBio). The AR2G (amine reactive 2nd generation) biosensor was used by immersion in 1× kinetic buffer for 10 minutes. IL-1Ra (R&D systems) was prepared at a concentration of 1 μg/ml and coated on the biosensor, and the binding ability was confirmed at each concentration by serially diluting GI210B1 from 15.6 nM to 1,000 nM.

B1: GI210B1 (GLP-1-IgG4 Fc-IL-1Ra) fusion protein dimer (Fc fusion)
chain: HGEGTFTSDVSSYLEEQAAKEFIAWLVKGGGGGGGSGGGGSGGGGSGGAESKYGPPCPPCPAPEAAGGPSVFLFPPKPKDQLMISRTPEVTCVVVDVSQEDPEVQFNWYVDGVEVHNAKTKPREEQFNSTYRVVSVLTVLHQDWLNGKEYKCKVSNKGLPSSIEKTISKAKGQPREPQVYTLPPSQEEMTKNQVSLTCLVKGFYPSDIAVEWESNGQPENNYKTTPPVLDSDGSFFLYSRLTVDKSRWQEGNVFSCSVLHEALHNHYTQKSLSLSLGGGGGSGGGGSGGGGSGGRPSGRKSSKMQAFRIWDVNQKTFYLRNNQLVAGYLQGPNVNLEEKIDVVPIEPHALFLGIHGGKMCLSCVKSGDETRLQLEAVNITDLSENRKQDKRFAFIRSDSGPTTSFESAACPGWFLCTAMEADQPVSLTNMPDEGVMVTKFYFQEDE
notes: also called third fusion protein
Binder B1 has a koff of 0.0093 s⁻¹ and a kon of 22000 M⁻¹ s⁻¹.
